Source: BindingDB's records for doi:10.1021/acs.biochem.5b00135 (Northwestern University, 2015)

Target: T1, Nitric oxide synthase, inducible (Mus musculus, UniProt P29477)
T1 sequence (P29477 whole entry): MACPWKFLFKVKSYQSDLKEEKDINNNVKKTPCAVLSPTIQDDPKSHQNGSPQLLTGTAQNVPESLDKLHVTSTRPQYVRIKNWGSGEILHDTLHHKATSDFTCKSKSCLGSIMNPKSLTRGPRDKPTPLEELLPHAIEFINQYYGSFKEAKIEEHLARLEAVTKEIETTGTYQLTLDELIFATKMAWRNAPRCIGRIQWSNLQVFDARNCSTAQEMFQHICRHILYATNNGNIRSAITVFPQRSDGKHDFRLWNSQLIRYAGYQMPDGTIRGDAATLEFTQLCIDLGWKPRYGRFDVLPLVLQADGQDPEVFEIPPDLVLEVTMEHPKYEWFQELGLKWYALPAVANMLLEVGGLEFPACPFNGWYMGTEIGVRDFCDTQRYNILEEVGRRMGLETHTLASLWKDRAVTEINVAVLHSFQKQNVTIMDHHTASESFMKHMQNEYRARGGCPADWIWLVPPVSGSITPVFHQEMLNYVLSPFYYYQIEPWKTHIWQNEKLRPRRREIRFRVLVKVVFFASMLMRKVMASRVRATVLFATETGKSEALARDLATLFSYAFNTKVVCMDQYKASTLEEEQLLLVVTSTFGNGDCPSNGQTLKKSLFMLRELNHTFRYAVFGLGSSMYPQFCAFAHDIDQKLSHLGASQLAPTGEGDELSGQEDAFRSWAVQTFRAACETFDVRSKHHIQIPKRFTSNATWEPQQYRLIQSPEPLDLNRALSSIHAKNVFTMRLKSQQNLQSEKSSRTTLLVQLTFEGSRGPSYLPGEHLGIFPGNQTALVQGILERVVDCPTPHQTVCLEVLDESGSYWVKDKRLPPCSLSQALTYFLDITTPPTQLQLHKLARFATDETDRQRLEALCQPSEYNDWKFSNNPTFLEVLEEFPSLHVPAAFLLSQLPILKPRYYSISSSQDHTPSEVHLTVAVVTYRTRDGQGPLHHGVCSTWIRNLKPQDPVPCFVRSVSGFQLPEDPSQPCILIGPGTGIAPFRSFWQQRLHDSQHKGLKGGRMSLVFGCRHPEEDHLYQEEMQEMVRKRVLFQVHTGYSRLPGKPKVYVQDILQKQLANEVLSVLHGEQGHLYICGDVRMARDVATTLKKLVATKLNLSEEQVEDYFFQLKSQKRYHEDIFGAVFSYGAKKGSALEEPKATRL
Assay: Hemoglobin Assay
Conditions: pH 7.4
Description: The assay mixture contained L-arginine (10 μM), NADPH (100 μM), oxyhemoglobin (0.125 mg/mL), tetrahydrobiopterin (10 μM), and different amounts ofinhibitors. The final volume was adjusted to 600 μL with 100 mM Hepes buffer (pH 7.4). The enzymatic reaction was initiated by addition of 10 μL of an iNOS stock, and the rate of NO production was monitored by the change in absorbance at 401 nm in the initial 60 s on a spectrophotometer at 37 °C.

Ki: 3.65 µM
SMILES: CC(=N)NCCC[C@H](N)C(=O)O [(S)-5-Acetimidamido-2-aminopentanoic acid (4, L-NIO)]
